Results reported in US20230003721A1, “MITOTHERAPEUTICS FOR THE TREATMENT OF BRAIN DISORDERS” (The University of Florida Research Foundation, Inc., priority 2019, published 2023).

Key:
[1] = tested on: C57BL/6J mice; assay: Respiration of brain mitochondria isolated from mice given compound in drinking water; format: in vivo, mouse; conditions: 5 mg/kg in water, 7 months, Complex I and II substrates
Experimental: For respiration experiments using isolated mitochondria, C57BL/6J mice were grouped to receive 25 mg/kg dyclonine-supplemented or standard water for 7 months starting at 2 months of age. The water supply was refreshed weekly. Mice were housed on a 12 h: 12 h light dark cycle with ad libitum access to food and water. All experiments were performed during the light part of the diurnal cycle. Housing, animal care and experimental procedures were consistent with the Guide for the Care and Use of Laboratory Animals and approved by the Institutional Animal Care and Use Committee of The Scripps Research Institute.
Whole brains were harvested from 2 mice/group of 9-month old C57BL/6J mice receiving 25 mg/kg dyclonine-supplemented or standard water for 7 months. […] The yield of mitochondrial protein was determined by BCA assay.
For OCR measurements of isolated brain mitochondria, the mitochondria were diluted to 3 μg/20 μl in cold MAS-BSA buffer+substrate (pyruvate/malate or succinate, to maintain healthy state of mitochondria) and plated onto 96-well PDL-coated plates (20 μl/well). […] State 3 respiration parameters driven by mitochondrial Complex I substrates (pyruvate/malate) were measured first, while Complex II-driven respiration (succinate) was measured by inhibiting Complex I with rotenone (2 μM). OCR was calculated by the Seahorse XF96 software package. […]

[2] = tested on: primary neurons; assay: Oxygen consumption rate (OCR) of permeabilized primary neurons; format: cell-based, mouse
Experimental: Respiration of isolated mitochondria. The oxygen consumption rate (OCR) of permeabilized neurons and isolated brain mitochondria (from 9-month old mice) was measured by the XF96 Extracellular Flux analyzer (Seahorse Bioscience). For assays using cultured neurons, primary neurons were dissociated from the forebrains of P0 pups, seeded at 1.9×10^4/well (PDL-coated XF96 plate), cultured to DIV13 and incubated with dyclonine or DMSO (0.1%) for 24 hours. Prior to the start of the OCR measurement, all but 30 μl of Neurobasal A/B27 culture medium was removed from each well. Cells were washed twice with pre-warmed MAS-BSA assay medium (4 mg/ml fatty-acid free BSA, pH=7.2) and incubated in 180 μl at 37° C. for 5 min. Following the cartridge calibration, cells were loaded into the XF96 Extracellular Flux analyzer and further equilibrated for 10 min with two cycles of 3 min mixing and 2 min resting prior to the first measurement of basal respiration. OCR were measured at 37° C. under basal conditions followed by the sequential injection of pre-warmed 10× mitochondrial substrates/ADP (20 μl), oligomycin (22 μl), FCCP (24 μl), and rotenone/antimycin A (26 μl). The final concentrations of injected compounds were as follows: 10 mM mitochondrial substrates (pyruvate/malate or succinate), 1 mM ADP, 1.5 μM oligomycin, 3 μM FCCP, 2 μM rotenone/antimycin A. Saponin (25 μg/ml) was co-injected with substrate/ADP to permeabilize the cells and stimulate ADP-dependent respiration. Two baseline measurements were obtained prior to any injection and 2 response measurements were collected after each injection except for after FCCP addition which consisted of 1 measurement (9 total measurements in each assay). Each measurement cycle consisted of 2 min mixing, 2 min waiting, and 3 min data acquisition. This protocol allowed for sequential assessment of basal cell respiration, maximal mitochondrial respiratory capacity (State 3 with substrate/ADP), proton leak (State 4o with oligomycin), uncoupled maximal respiration (State 3U with FCCP) and non-mitochondrial respiration with the Complex I/Complex III inhibitors, rotenone/antimycin A. Cells were washed twice with MAS buffer to remove residue BSA contained in the assay medium, lysed in 50 μl lysis buffer (25 mM HEPES, 1 mM EGTA, 1 mM EDTA, 0.1% SDS, 1% NP-40, 1× protease and phosphatase inhibitor, pH 7.0 adjusted with NaOH) and total protein was determined by BCA assay. Oxygen consumption was normalized to total protein content as pmol O2/min/ug total protein.
Measurement of mitochondrial O2 consumption. […] OCR and ECAR were measured at 37° C. under basal conditions followed by the sequential injection of pre-warmed 10× mitochondrial substrates/ADP (20 μl), oligomycin (22 μl), FCCP (24 μl), and rotenone/antimycin A (26 μl). […]

## COC(=O)[C@@H]1[C@H]2C[C@H]3c4[nH]c5ccccc5c4CCN3C[C@@H]2CC[C@@H]1O [YOHIMBINE HYDROCHLORIDE]
[1]
  Respiratory Control Ratio (RCR, State 3/4o): significantly increased
[2]; 10 μM, 24 h
  basal rate of respiration: weak, non-significant, but consistent trend towards an increased basal rate of respiration
[2]; 10 μM, 24 h, cultured neurons
  State 3 and 3u respiration stimulated by either Complex I or Complex II substrates: significant increase
[2]; mitochondria from cultured neurons, Complex I and II substrates
  Respiratory Control Ratio (RCR, State 3/4o): significantly increased
[2]; oxygen consumption rate, significant change
  OCR: increased

Counter-ions that a name gives are not always drawn.
